A word on the IC50: it is the midpoint of a concentration-inhibition curve.

By UniProt entry, the sequences of proteins in these tests, tags left out.
UniProt Q9Y5Y9, whole entry: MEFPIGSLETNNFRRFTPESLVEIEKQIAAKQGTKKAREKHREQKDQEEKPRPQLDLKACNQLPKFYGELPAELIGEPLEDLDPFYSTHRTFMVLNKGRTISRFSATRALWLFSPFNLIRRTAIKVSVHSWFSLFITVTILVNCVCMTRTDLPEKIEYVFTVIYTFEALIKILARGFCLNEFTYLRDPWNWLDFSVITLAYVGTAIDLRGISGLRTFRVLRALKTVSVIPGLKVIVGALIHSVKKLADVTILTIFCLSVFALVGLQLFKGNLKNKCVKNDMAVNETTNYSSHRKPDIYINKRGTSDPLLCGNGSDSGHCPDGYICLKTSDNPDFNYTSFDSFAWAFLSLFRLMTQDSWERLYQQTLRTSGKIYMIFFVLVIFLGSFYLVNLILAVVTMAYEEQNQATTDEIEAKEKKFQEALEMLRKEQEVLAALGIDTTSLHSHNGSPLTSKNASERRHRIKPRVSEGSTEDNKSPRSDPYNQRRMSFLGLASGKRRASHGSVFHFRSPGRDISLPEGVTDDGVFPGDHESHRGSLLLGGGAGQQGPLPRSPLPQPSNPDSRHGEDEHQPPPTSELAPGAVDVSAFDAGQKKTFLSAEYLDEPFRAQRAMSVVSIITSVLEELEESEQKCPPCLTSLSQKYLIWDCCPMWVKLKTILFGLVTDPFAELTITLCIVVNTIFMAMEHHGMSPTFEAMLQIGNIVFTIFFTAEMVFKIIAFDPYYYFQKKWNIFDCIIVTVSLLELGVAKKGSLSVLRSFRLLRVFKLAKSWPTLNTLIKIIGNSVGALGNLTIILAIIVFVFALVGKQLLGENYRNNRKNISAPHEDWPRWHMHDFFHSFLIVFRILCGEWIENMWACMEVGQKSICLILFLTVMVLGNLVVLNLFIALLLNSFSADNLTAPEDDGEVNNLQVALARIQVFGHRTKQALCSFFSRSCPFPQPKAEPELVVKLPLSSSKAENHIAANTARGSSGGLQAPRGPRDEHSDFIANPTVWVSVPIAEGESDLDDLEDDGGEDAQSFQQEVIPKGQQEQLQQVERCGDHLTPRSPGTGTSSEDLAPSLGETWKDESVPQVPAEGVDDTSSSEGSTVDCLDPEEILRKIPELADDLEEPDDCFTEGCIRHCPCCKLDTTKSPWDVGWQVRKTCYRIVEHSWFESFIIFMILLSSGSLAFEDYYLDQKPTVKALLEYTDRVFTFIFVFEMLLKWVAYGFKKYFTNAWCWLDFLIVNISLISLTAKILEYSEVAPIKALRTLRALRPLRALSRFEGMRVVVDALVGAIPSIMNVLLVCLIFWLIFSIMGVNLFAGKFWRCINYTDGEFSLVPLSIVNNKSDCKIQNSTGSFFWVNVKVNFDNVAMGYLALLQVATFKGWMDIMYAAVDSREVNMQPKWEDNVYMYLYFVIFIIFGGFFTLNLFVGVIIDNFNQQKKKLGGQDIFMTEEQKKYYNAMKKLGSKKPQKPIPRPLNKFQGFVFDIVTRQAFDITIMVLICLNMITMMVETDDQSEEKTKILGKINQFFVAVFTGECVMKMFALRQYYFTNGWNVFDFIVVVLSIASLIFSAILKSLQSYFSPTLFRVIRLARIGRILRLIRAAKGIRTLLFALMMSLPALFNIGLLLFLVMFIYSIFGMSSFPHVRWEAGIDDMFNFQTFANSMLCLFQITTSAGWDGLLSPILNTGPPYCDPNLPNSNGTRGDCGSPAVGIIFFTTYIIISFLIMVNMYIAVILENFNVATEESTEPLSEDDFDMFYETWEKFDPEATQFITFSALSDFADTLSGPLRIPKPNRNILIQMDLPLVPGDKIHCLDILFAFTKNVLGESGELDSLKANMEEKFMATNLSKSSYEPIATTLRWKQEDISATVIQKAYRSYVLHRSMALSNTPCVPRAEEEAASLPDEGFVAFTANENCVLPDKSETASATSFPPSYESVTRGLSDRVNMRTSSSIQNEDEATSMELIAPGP

Where two headings read alike, the source gives them in different places.

Here are results for eleven compounds from patent US20260216157A1, “TETRAHYDROTHIOPHENE DERIVATIVE AND USE THEREOF IN MEDICINE” (Haisco Pharmaceutical Group Co., Ltd., priority 2023, published 2026).

The target in this experiment is hNav1.8 (Homo sapiens, UniProt Q9Y5Y9). Nature of the experiment: Nav1.8 manual patch clamp test. Type of experiment: cell-based. The following applies: read-out: Inhibitory activity (IC50) against hNav1.8, CHO cells stably expressing human Nav1.8, whole-cell patch clamp, half-inactivated state.

Take `COc1c([C@H]2[C@H](C(=O)Nc3ccc(C(O)CO)nc3)S[C@@](C)(C(F)(F)F)[C@H]2C)ccc(F)c1F` (some centres unmarked): the IC50 (tested form: TFA) is under 10 nM.

In the case of `COc1c([C@H]2[C@H](C(=O)Nc3cccc(S(C)(=N)=O)c3)S[C@@](C)(C(F)(F)F)[C@H]2C)ccc(F)c1F` (some centres unmarked), the IC50 (tested form: TFA) was under 10 nM.

For `COc1c([C@H]2[C@H](C(=O)Nc3ccnc(C(O)CO)c3)S[C@@](C)(C(F)(F)F)[C@H]2C)ccc(F)c1F` (some centres unmarked), the IC50 (tested form: TFA) is under 1 nM.

`COc1c([C@@H]2[C@@H](C)[C@](C)(C(F)(F)F)S[C@H]2C(=O)Nc2ccn(C)c(=O)c2)ccc(F)c1F` (relative stereo): the IC50 is under 10 nM.

Take `COc1c([C@@H]2[C@@H](C)[C@](C)(C(F)(F)F)S[C@H]2C(=O)Nc2ccnc(C(N)=O)c2)ccc(F)c1F` (relative stereo): the IC50 is under 10 nM.

With `COc1c([C@H]2[C@H](C(=O)Nc3ccc(F)c(C(N)=O)c3)S[C@@](C)(C(F)(F)F)[C@H]2C)ccc(F)c1F` (relative stereo), the IC50 is under 0.1 nM.

Turning to `COc1c([C@H]2[C@H](C(=O)Nc3ccc(F)c(S(N)(=O)=O)c3)S[C@@](C)(C(F)(F)F)[C@H]2C)ccc(F)c1F` (relative stereo), the half-maximal inhibitory concentration (IC50) is under 0.1 nM.

In the case of `COc1c([C@H]2[C@H](C(=O)Nc3cccc(S(C)(=O)=O)c3)S[C@@](C)(C(F)(F)F)[C@H]2C)ccc(F)c1F` (relative stereo), the IC50 is under 0.1 nM.

As to `COc1c([C@H]2[C@H](C(=O)Nc3cccc(S(N)(=O)=O)c3)S[C@@](C)(C(F)(F)F)[C@H]2C)ccc(F)c1F` (relative stereo), the IC50 is under 10 nM.

Turning to `C[C@H]1[C@@H](c2ccc(OC(F)(F)F)c3c2OCC3(C)C)[C@H](C(=O)Nc2ccnc(C(N)=O)c2)S[C@@]1(C)C(F)(F)F` (relative stereo), the 50% inhibitory concentration (IC50) is under 10 nM.

For the compound `C[C@H]1[C@@H](c2ccc(F)c3c2CCC3)[C@H](C(=O)Nc2ccnc(C(N)=O)c2)S[C@@]1(C)C(F)(F)F` (relative stereo) [Mixture of compounds 21-7a and 21-7b], the IC50 was under 1 nM.
